Measured values published in US20250032493A1, “Methods for Treating Diseases Using MALT1 Inhibitors” (RARIFIED BIOSCIENCES, INC., priority 2021, published 2025).
Values joined by “and” are separate entries in the source; they are usually repeats but may differ in a detail not shown here. Equal entries are not always repeated.

Columns and labels:
splenic Tregs [1] = assay: Rat CIA model: splenic Treg levels; conditions: in vivo
[2] = system: rat collagen induced arthritis (CIA) model; assay: Rat CIA model: plasma and synovial cytokines, anti-collagen and total IgG; conditions: in vivo
splenic Tregs [3] = conditions: rat, in vivo
[4] = system: rat collagen induced arthritis (CIA) model; assay: Rat collagen-induced arthritis model: clinical score; conditions: in vivo

SMILES: CO[C@@H](C)c1c(NC(=O)Nc2ccnc(C(F)(F)F)c2)cnc2cc(Cl)nn12 [REO-981]
- decrease of CD25+FoxP3+ splenic Tregs (splenic Tregs [1]): statistically significant decrease
- IL-6 levels in the plasma [2]: significantly reduced
- KC-GRO in plasma and synovial fluid [2]: Significant inhibition
- TNFα in the synovial fluid [2]: Significant reduction
- anti-collagen antibodies in plasma [2]: significant reduction
- total IgG levels [2]: no effect
- sensitivity of LPS-stimulated macrophages to MALT1i (Macrophages): insensitive
- Treg reduction in naïve compared with diseased animals (splenic Tregs [3]): more pronounced in naïve animals
- reduction in Treg cells (splenic Tregs [3]; 1 mg/kg): 50%
- FoxP3 expression of Tregs (human Tregs): no effect
- ability of human Tregs to suppress naïve CD4+ T-cell proliferation (human Tregs): did not reduce
- proliferative capacity of responder CD4+ T-cells (human Tregs): decreased proliferative capacity
- pSTAT5 levels in Tregs (IL-2R signaling (pSTAT5)): no effects
- reduction in the clinical score [4]: 38% and 57%
